Measured values: patent publication US7320785B2, “Compositions and methods for modulation of DARPP-32 phosphorylation” (The Rockefeller University, priority 2001, dated 2008)
Like-named read-outs stand apart in the source and are kept apart here.

Tested on: DARPP-32
Experiment: DARPP-32 phosphorylation in mouse brain slices, immunoblotting with phosphorylation state-specific antibodies

CCCN1CCC[C@@H]2Cc3n[nH]cc3C[C@H]21 [Quinpirole]
activity at 10 µM (2 min, read-out: Percent Phospho-Ser137): 135% | activity at 10 µM (2 min, read-out: Percent Phospho-Thr34): 65% | activity at 10 µM (10 min, read-out: Percent Phospho-Thr75): 112%
